Values quoted from earlier work in patent US12491259B2, “Anti-variable MUC1* antibodies and uses thereof” (Minerva Biotechnologies Corporation, priority 2022, dated 2025).

Tested on: HER2+ breast cancers
Settings: reported; cited from earlier work

Enhertu
increase of survival of metastatic breast cancer patients: nearly two years
patients with treatment induced pneumonitis: up to 16%
